Results: patent US20230330254A1 (Regeneron, published 2023)

Molecular target: T1, full-length cynomolgus GLP1R on HEK293/CRE-Luc/mfGLP1R cells (cynomolgus, UniProt F8V479 24-463)
T1 construct: whole, on cells
Experiment: flow cytometry, mfGLP1R cells

B1: REGN8072 (antibody, human IgG4 S228P, kappa, V domains shown)
VH: QVQLVESGGGVVQPARSLRLSCAASGFAFSRSAMHWVRQAPGKGLEWVAVISYDGSNKYYTDSVKGRFTISRDNSKNTLYLQMNTLRAEDTALYYCAKMYTTMDSFDYWGQGTLVTVSS
VL: DIQLTQSPSFLSASVGDRVTITCWASQGISSYLAWYQQKPGKAPKLLIYAASTLQSGVPSRFSGSGSGTEFTLTISSLQPEDFALYYCQQLNSYPRTFGQGTKVEIKR
notes: IgG4; Q-tag on light chain N-terminus; also called mAb 4; REGN8072 unconjugated Ab
With B1 the EC50 was 1.09 nM.
